Assay results published in patent US20050266014A1, “Tumor antigen based on products of the tumor suppressor gene WT1” (HARUO SUGIYAMA, priority 1998, published 2005).

Columns and labels:
[1] = test system: C1498 cells transfected with the WT1 gene; assay: Specific lysis by D^b 126 peptide-specific CTL, Example 6; type: cell-based, mouse; conditions: WT1-transfected C1498 vs parent C1498 cells, FIG. 14
FBL3 leukemia cells = assay: In vivo tumor immunity: immunization and challenge with FBL3 leukemia cells, Example 8; design: species or system mice
[2] = test system: RMA cells that do not express WT1; assay: Specific lysis by D^b 126 peptide-specific CTL, Example 6; type: cell-based, mouse; conditions: FIG. 13
spleen cells = assay: Flow cytometry of CD4 and CD8 expression on immunized spleen cells, Example 1; type: cell-based, C57BL/6 mice; conditions: compared to non-immunized control spleen cells, FIG. 1
[3] = test system: mouse cells immunized with the D^b 126 peptide; assay: Flow cytometry of the CD4+/CD8+ ratio, Example 2; type: cell-based, C57BL/6 mice; conditions: compared to non-immunized mouse (control) cells
RMA-S cells = assay: Killing assay, Example 2: lymph node cells of mice given peptide-pulsed dendritic cells against 51Cr-labeled RMA-S cells; type: cell-based, C57BL/6 mice; conditions: FIGS. 2 and 3
Description: Dendritic cells (DC) derived from the bone marrow of the C57BL/6 mice were prepared in the following manner. According to the standard method, the bone marrow cells were cultured in the presence of GM-CSF to prepare bone marrow-derived dendritic cells (J. Exp. Med. 182: 255, 1995).
Then, the above DC cells were intradermally injected to the foot pads and hands of C57BL/6 mice, and on day 5 the lymph nodes were removed to prepare cell suspensions.
Then the above cell suspension derived from the relevant lymph node and the B7.1-RMA-S cells were mixed and cultured for in vitro restimulation.
Then, on day 5 after the in vitro restimulation, a killing assay was performed using the ^51Cr-labeled RMA-S cells as the target. When ⅛ of the total lymphocytes recovered on day 5 after restimulation was used as the effector cell, the E/T ratio was set as the highest one (1.0).

[4] = test system: EL-4 cells (expressing K^b and D^b); assay: Killing assay, Example 1: spleen cells of peptide-immunized mice against Europium labeled EL-4 cells; type: cell-based, C57BL/6 mice; conditions: for cytocidal effect (killing assay): E/T ratio 40:1
Description: One week after the immunization treatment, the mouse spleen was extracted, from which suspensions of spleen cells were prepared.
The above immunized spleen cells and the irradiated spleen cells were co-cultured for 5 days to induce or prepare killer T cells.

induced CTL = assay: FACS analysis of surface markers of induced CTL, Example 3; type: cell-based; conditions: human CTL, FIGS. 5 to 10
Description: One week later, T2 cells that were irradiated after incubating for 1 hour with the peptide (20 μg/ml) were added to the above culture system for restimulation. From the following day, human IL-2 (final concentration 100 JRU/ml) was added to the culture.
Subsequently, after repeating, for five times, stimulation with the T2 cells that were irradiated after being pulsed with the peptide, a killing assay was performed using, as the target, the T2 cells pulsed with the peptide or the T2 cells not pulsed with the peptide. The surface markers of the induced CTL were subjected to FACS analysis.

[5] = test system: FBL3 cells that inherently express WT1; assay: Specific lysis by D^b 126 peptide-specific CTL, Example 6; type: cell-based, mouse; conditions: FIG. 13

Structure (SMILES): CSCC[C@H](NC(=O)[C@@H](N)CCCNC(=N)N)C(=O)N[C@@H](Cc1ccccc1)C(=O)N1CCC[C@H]1C(=O)N[C@@H](CC(N)=O)C(=O)N[C@@H](C)C(=O)N1CCC[C@H]1C(=O)N[C@@H](Cc1ccc(O)cc1)C(=O)N[C@@H](CC(C)C)C(=O)O [D^b 126]
- specific lysis by D^b 126 peptide-specific CTL [1]: further killed the C1498 cells transfected with the mouse WT1 gene as compared to the parent C1498 cells
- survival after tumor challenge (FBL3 leukemia cells; LPS-activated spleen cells pulsed with D^b 126 peptide, once every week for 3 weeks, 3×10^7 FBL3 cells intraperitoneally, FIG. 16): overcame tumor challenge and survived
- ascites after tumor challenge (FBL3 leukemia cells; immunized mice, from three days after intraperitoneal injection of tumor cells): ascites started to gradually decrease
- specific lysis by D^b 126 peptide-specific CTL [2]: but not the RMA cells
- CD8+ cells in immunized spleen cells (spleen cells): increase in the CD8^+ cells
- CD8+ cells, in words [3]: the CD8^+ cells were increased
- killing of target cells (RMA-S cells; RMA-S target cells not pulsed with the peptide): did not kill the target cells that were not pulsed with said peptide
- killing of target cells (RMA-S cells; RMA-S target cells pulsed with the peptide): killed the target cells pulsed with said peptide
- cytocidal effects, in words ([4]; EL-4 cells not pulsed with D^b 126 as target): few cytocidal effects were observed
- cytocidal effects, in words ([4]; EL-4 cells pulsed with D^b 126 as target): cytocidal effects were observed
- cytocidal effect (killing assay) ([4]; Peptide+ target, Mouse A): 76.6%
- cytocidal effect (killing assay) ([4]; Peptide+ target, Mouse B): 37.2%
- cytocidal effect (killing assay) ([4]; Peptide− target, Mouse A): 4.9%
- cytocidal effect (killing assay) ([4]; Peptide− target, Mouse B): 0.9%
- surface markers of induced CTL (CD4, CD8) (induced CTL): most of the cells were CD8-positive
- specific lysis by D^b 126 peptide-specific CTL [5]: caused lysis of the FBL3 cells
